From PubChem BioAssay AID720708 (National Center for Advancing Translational Sciences (NCATS), 2013)
The list shows a part of the results, in another mix than the full data. Calls of active or inactive are those of the source. Calls come from the whole dose curve; as a rule, active = well fitted inhibition curve with a large enough effect; inconclusive = small, poorly fitted or top-dose-only effect; inactive = no such curve, though single readings can be large or run the other way.

By UniProt entry, the sequences of proteins in these tests, tags left out. Where a name states a change or a piece, a line headed by the entry shows the natural chain unless it says otherwise.
UniProt Q8WZA2: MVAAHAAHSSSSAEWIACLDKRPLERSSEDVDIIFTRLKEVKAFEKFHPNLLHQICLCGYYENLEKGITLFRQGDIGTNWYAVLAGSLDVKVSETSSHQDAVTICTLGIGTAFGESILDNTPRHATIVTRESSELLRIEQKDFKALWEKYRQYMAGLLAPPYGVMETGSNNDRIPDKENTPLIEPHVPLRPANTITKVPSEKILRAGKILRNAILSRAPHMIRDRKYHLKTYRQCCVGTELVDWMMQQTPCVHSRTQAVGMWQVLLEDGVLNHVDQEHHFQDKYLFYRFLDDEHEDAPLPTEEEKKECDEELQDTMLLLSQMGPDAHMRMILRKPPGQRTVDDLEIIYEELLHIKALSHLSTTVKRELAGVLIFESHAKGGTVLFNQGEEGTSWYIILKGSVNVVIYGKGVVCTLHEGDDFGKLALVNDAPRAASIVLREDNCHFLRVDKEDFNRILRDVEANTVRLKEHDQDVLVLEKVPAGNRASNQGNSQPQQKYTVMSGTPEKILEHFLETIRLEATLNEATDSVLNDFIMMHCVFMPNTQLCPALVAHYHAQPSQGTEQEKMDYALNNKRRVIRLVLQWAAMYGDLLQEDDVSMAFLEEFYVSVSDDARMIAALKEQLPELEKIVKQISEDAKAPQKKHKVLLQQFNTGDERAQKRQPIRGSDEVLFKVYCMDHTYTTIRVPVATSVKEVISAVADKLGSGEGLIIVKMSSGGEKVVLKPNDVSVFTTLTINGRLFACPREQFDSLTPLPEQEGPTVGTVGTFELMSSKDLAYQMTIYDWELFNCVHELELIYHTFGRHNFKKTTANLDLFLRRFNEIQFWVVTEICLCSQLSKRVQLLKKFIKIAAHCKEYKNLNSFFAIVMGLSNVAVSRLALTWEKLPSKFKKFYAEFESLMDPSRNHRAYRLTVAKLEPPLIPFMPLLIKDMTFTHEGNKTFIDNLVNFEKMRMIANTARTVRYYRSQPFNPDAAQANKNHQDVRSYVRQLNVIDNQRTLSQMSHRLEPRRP

Target: Rap guanine nucleotide exchange factor 4 (Homo sapiens) (UniProt Q8WZA2)
Assay: qHTS for Antagonist of cAMP-regulated guanine nucleotide exchange factor 2 (EPAC2): primary screen; note: nearly all actives have a fitted effect of over 45% in size
Settings: EPAC2 GEF exchange of Rap1B-BODIPY-GDP, fluorescence; at 114 µM (top of the series) unless noted
% is set by controls: 0 for no effect and ±100 for the full control effect.

Structure (SMILES)	activity, negative = inhibition
Cc1cc(SC(NC=O)C(Cl)(Cl)Cl)ncn1 (stereo not drawn)	inactive: -11.2%
O=P(Nc1ccccn1)(c1cccc2ccccc12)c1cccc2ccccc12	inactive: -25.5%
CC1CCNP(=O)(N(CCCl)CCCl)O1 (stereo not drawn)	inactive: -0.577%
O=C(O)C(O)c1ccc(N(CCCl)CCCl)cc1 (stereo not drawn)	inactive: 2.38%
CCOC(=O)Nc1ccc([As](=O)(O)O)c(O)c1	inactive: -1.98%
Cc1cc(SC(NC(=O)c2ccccc2)C(Cl)(Cl)Cl)nc(C(C)C)n1 (stereo not drawn)	inactive: -4.57%
CCCCOc1ccc(C(=O)NCC2(N3CCCCC3)CCCCC2)cc1OC	inactive: 15.2%
COP(=O)(OC)N1CC1c1ccccc1 (stereo not drawn)	inactive: 8.43%
CCOC(=O)c1ccc(NC(=O)C(C)(CCl)SC)cc1 (stereo not drawn)	inactive: -4.7%
CSc1ccc(Nc2c([N+](=O)[O-])cc([N+](=O)[O-])cc2[N+](=O)[O-])cc1	inactive: -14.5%
O=C(OC1CN2CCC1CC2)c1cccc([N+](=O)[O-])c1 (stereo not drawn)	inactive: -4.35%
CCC(C)N(CC(C)C)C(=S)SC(NC(C)=O)C(Cl)(Cl)Cl (stereo not drawn)	inactive: -1.92%
COC(=O)C1(C)COP(=O)(N2CCCC2)OC1 (stereo not drawn)	inactive: 11.7%
COP1(=S)c2c(C)nn(CCC#N)c2N=C(c2ccc(F)cc2)N1C (stereo not drawn)	inactive: -5.14%
O=C(Nc1ccncc1[N+](=O)[O-])c1ccc([N+](=O)[O-])cc1[N+](=O)[O-]	inactive: 5.74%
O=C(COc1ccccc1)OC1CN2CCC1CC2 (stereo not drawn)	inactive: 12%
O=C(O)C(=O)c1ccc(N(CCCl)CCCl)cc1	inactive: 1.7%
COc1ccc(N/C(=N/P(=O)(N2CCOCC2)N2CCOCC2)N2CCOCC2)cc1	inactive: -3.49%
O=[N+]([O-])c1cc(Oc2ccc([N+](=O)[O-])cc2C(F)(F)F)cc([N+](=O)[O-])c1	inactive: -2.98%

Structure (SMILES)	activity, negative = inhibition
Cc1cc(=O)[nH]c(N[N+](=O)[O-])n1	inactive: -6.6%
O=C(OC1CN2CCC1CC2)C12CC3CC(CC(C3)C1)C2 (stereo not drawn)	inactive: 4.14%
Cc1c2c(nc3ccccc13)SC(C(Cl)Cl)C2 (stereo not drawn)	inactive: -17.8% [at 57.1 µM]
COc1cc(I)ccc1[As](=O)(O)O	inactive: 4.05%
COc1ccc2nc(NP(=O)(c3ccccc3)c3ccccc3)sc2c1	inactive: -3.67%
O=P1(N(CCCl)CCCl)Nc2ccccc2N1	inactive: 11.2%
O=P1(N(CCCl)CCCl)OCCCN1CCCl (stereo not drawn)	inactive: -0.39%
COC(=O)C1(C)COP(=O)(N2CCCCCC2)OC1 (stereo not drawn)	inactive: 9.37%
ClCCSc1nnc(-c2cccnc2)o1	inactive: 11.1%
O=[N+]([O-])c1cc([N+](=O)[O-])c(-c2ccn[nH]2)s1	inactive: -11.2%
CCN(CC)C(=S)SC(NC=O)C(Cl)(Cl)Cl (stereo not drawn)	inactive: 5.93%
O=C(OC1CN2CCC1CC2)c1cccc2[nH]cnc12 (stereo not drawn)	inactive: -0.65%
CC(C)NC(=O)NP(=O)(Oc1ccccc1)Oc1ccccc1	inactive: -6.76%
COc1cc(C(=O)NCC2(N3CCOCC3)CCCCC2)ccc1OCC(C)C	inactive: 3.46%
C[As](=O)(O)c1cccc(C(=O)O)c1	inactive: 7.87%
O=[As](O)(c1ccc(O)cc1)c1ccccc1O	inactive: 0.36%
Cc1ccc2nc3c(c(C)c2c1)CC(C(Cl)Cl)S3 (stereo not drawn)	inactive: 5.26%
Cc1ccc(OP(=O)(Nc2ccc([N+](=O)[O-])cn2)Oc2ccc(C)cc2)cc1	inactive: 23.5%
[N-]=[N+]=NC1CCCCC1NC(=O)c1cc([N+](=O)[O-])cc([N+](=O)[O-])c1 (stereo not drawn)	inactive: -27.8%
